Test results as given in PubChem BioAssay AID648 (SRMLSC, 2007).
This is a selection; strong and weak results do not stand in their true shares. Some tests of the compounds listed are not included; inactive here does not mean inactive elsewhere. The source made the active and inactive calls.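 How the source made its calls: active means viability at or below 30%; inactive means viability above 30%.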

assay: inhibitors of HUVEC proliferation, primary screen, cell-based, 384-well (AID 648); conditions: CellTiter-Glo luminescence, 72 h, hits give low values, screened at 10 µM (by protocol);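 further: 100% = median luminescence of DMSO-only cell control wells on each plate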

Question: For `CN(C)c1cccc(C(=O)NCC2(N(C)C)CCCCC2)c1`, which viability is on record?
Answer: Its viability is inactive: 96.9%.

Question: Which viability does the source give for `O=C(OC1CN2CCC1CC2)C(CO)(c1ccccc1)c1ccccc1` (configuration not stated) here?
Answer: The viability was inactive: 108%.
